{"source": "patent US20060252714A1", "about": "“Pharmaceutical compositions and methods for treating multidrug resistant cancer” (priority 2003, published 2006)", "origin": "cited, not measured here", "settings": "IV unless otherwise indicated; cited from earlier work"}
{"substance": "Interleukin-2: chemotherapy drug listed in Table I", "values": [{"measurement": "Toxic dose range", "result": "Conventional dose"}]}
